## Binding of CDR-mutated scFvs to a peptide of the spike HR2 region

The target is the same throughout: PDVDLGDISGINAS, from the HR2 region of SARS-CoV-2 spike.

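The parent was found by panning a naive human phage display library on the peptide. In library AAYL51, one, two or three CDR residues were substituted; doubles and triples were drawn at random. The assay is AlphaSeq: two haploid yeast populations carry antibody and antigen on their surface. The frequency of each diploid, read from paired DNA barcodes, reflects how well the two displayed proteins bind. Read counts were normalised to the haploid input and turned into Kd by a linear fit to BCL2-family pairs of known affinity, for each replicate. Mating was done three times.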

Ab-91 is the parent antibody, in scFv form: VL, then three GGGGS repeats, then VH. The light chain is unchanged in all variants.
VL: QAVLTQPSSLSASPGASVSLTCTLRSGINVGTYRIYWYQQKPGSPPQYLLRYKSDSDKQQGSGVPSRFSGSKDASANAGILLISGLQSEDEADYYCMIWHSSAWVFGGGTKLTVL
VH: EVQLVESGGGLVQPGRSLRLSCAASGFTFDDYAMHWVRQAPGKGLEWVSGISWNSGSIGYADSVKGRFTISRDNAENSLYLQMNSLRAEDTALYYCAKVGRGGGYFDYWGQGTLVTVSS

Positions count from residue 1 of the parent VH; F27A puts A in place of F.
This list gathers variants with a substitution at F27 (VH, numbered from residue 1).
Each Kd is an estimate from the mating assay, the geometric mean of the replicates in which the pair was seen; lower is stronger.
"no signal" means that the variant was in the library but no mating with the target was seen in any replicate; the authors take this as a sign of poor binding, and no number exists.
Empty control strains, which show no peptide, gave a signal in 21% of pairings with library AAYL51; the median was 34 µM and 95% of these signals were weaker than 1.8 µM. No background was subtracted.

With F27A/G56K/D107T the result was 7.8 µM (2 of 3 replicates).
With F27L/S57E/D107G the result was 96 µM (1 of 3 replicates).
With F27I/V99C/Y108T the result was 6.4 µM (1 of 3 replicates).
With F27S/V64F/G100K the result was 130 nM (1 of 3 replicates).
With F27G/G100I/G104C the result was no signal (0 of 3 replicates).
With F27M/F29G/G56Y the result was 19 µM (1 of 3 replicates).
With G26D/F27W/G102D the result was no signal (0 of 3 replicates).
With F27T/H35R/N54L the result was no signal (0 of 3 replicates).
With F27L/D30T/W53L the result was 170 µM (2 of 3 replicates).
With F27A/G50R/G56I the result was no signal (0 of 3 replicates).
With F27G/S55N/G100S the result was no signal (0 of 3 replicates).
With F27G/D30S the result was 2.8 nM (3 of 3 replicates).
With F27T/G59H/G104T the result was 3.9 µM (2 of 3 replicates).
With F27P/M34D/S52Q the result was 2.9 µM (1 of 3 replicates).
With F27A/W53G/D107F the result was no signal (0 of 3 replicates).
With F27C/H35F/G103W the result was no signal (0 of 3 replicates).
With F27K/S55I/G104R the result was no signal (0 of 3 replicates).
With F27G/S55H/I58T the result was no signal (0 of 3 replicates).
With F27K/D31I/F106R the result was 580 µM (2 of 3 replicates).
With F27C/Y60W/G103N the result was no signal (0 of 3 replicates).
With F27D/H35K/F106Q the result was 2.4 µM (1 of 3 replicates).
With F27N/D31H/K65H the result was no signal (0 of 3 replicates).
With G26P/F27T/D107T the result was 7.5 µM (1 of 3 replicates).
With F27Q/W53C/G100Q the result was no signal (0 of 3 replicates).
With F27Q/I58K the result was 3.6 µM (2 of 3 replicates).
With F27H/D31V/G103F the result was no signal (0 of 3 replicates).
With F27V/Y108E the result was 22 µM (3 of 3 replicates).
With F27H/N54G/V64N the result was no signal (0 of 3 replicates).
With F27C/N54A/Y60M the result was 76 µM (1 of 3 replicates).
With F27G/S55K/G100N the result was no signal (0 of 3 replicates).
With F27K/D31Y/V64S the result was no signal (0 of 3 replicates).
With F27H/S57A/G100Y the result was 32 µM (1 of 3 replicates).
With G26L/F27G/G104S the result was 470 µM (2 of 3 replicates).
With F27P/F29H/G104V the result was no signal (0 of 3 replicates).
With F27M/D31T/N54A the result was 100 µM (1 of 3 replicates).
With F27Q/S52N/G56M the result was no signal (0 of 3 replicates).
With F27A/M34T/Y108R the result was 17 µM (3 of 3 replicates).
With F27D/S57C/G59K the result was no signal (0 of 3 replicates).
With F27P/G103L/Y108Q the result was 50 µM (2 of 3 replicates).
With F27C/V99Y/G102Y the result was no signal (0 of 3 replicates).
With F27D/F29S/M34I the result was 1.8 µM (3 of 3 replicates).
With F27Y/I51V/S55V the result was 52 µM (1 of 3 replicates).
With F27G/H35L/G103P the result was 11 µM (2 of 3 replicates).
With F27N/I51H/G104P the result was 11 µM (2 of 3 replicates).
With F27I/S57W/G103M the result was 97 µM (3 of 3 replicates).
With F27V/S57D/G104P the result was no signal (0 of 3 replicates).
With F27W/S52E/A61K the result was 47 µM (3 of 3 replicates).
With F27K/G59H/G102W the result was no signal (0 of 3 replicates).

Excerpt, the first 8 entries:

| changes | Kd | seen in |
|---|---|---|
| F27A/G56K/D107T | 7.8 µM | 2/3 |
| F27L/S57E/D107G | 96 µM | 1/3 |
| F27I/V99C/Y108T | 6.4 µM | 1/3 |
| F27S/V64F/G100K | 130 nM | 1/3 |
| F27G/G100I/G104C | no signal | 0/3 |
| F27M/F29G/G56Y | 19 µM | 1/3 |
| G26D/F27W/G102D | no signal | 0/3 |
| F27T/H35R/N54L | no signal | 0/3 |

Values reported by Engelhart et al. 2022, doi:10.1038/s41597-022-01779-4 (FLAb copy).